Values of other authors in patent US9724544B2, “Vitamin D promoting sunscreen” (priority 2009, dated 2017).

Conditions: approximately 295 to 315 nm; cited from earlier work

2,2′-dihydroxy-4,4′-dimethoxybenzophenone-5,5′-disodium sulfonate
absorption in the vitamin D producing range: relative lack of absorption
